{"source": "paper PMC10787068", "about": "“Targeting the Mitochondrial Chaperone TRAP1 Alleviates Vascular Pathologies in Ischemic Retinopathy” (Advanced Science, 2023)", "tested_on": "cytoplasmic Hsp90", "assay": "Cytoplasmic Hsp90 inhibition in MIO-M1 cells (western blotting)", "assay_type": "cell-based, human", "conditions": "6 hr", "data": [{"smiles": "CO[C@H]1/C=C\\C=C(/C)C(=O)NC2=CC(=O)C(NCCN(C)C)=C(C[C@@H](C)C[C@H](OC)[C@H](O)[C@@H](C)/C=C(\\C)[C@@H]1OC(N)=O)C2=O", "note": "[DMAG, 17‐Dimethyl‐aminothylamino‐17‐demethoxy‐geldanamycin]", "values": [{"measurement": "Hsp90 client protein checkpoint kinase 1 (Chk1) level", "value": "downregulated"}]}]}
